# Source: US20260083703A1, “INDOLINE DERIVATIVES AS SEROTONERGIC AGENTS USEFUL FOR THE TREATMENT OF DISORDERS RELATED THERETO” (MINDSET PHARMA INC., priority 2022, published 2026)
# Amino acid sequences for entries named in this document (tags omitted).
# UniProt P28223, whole entry: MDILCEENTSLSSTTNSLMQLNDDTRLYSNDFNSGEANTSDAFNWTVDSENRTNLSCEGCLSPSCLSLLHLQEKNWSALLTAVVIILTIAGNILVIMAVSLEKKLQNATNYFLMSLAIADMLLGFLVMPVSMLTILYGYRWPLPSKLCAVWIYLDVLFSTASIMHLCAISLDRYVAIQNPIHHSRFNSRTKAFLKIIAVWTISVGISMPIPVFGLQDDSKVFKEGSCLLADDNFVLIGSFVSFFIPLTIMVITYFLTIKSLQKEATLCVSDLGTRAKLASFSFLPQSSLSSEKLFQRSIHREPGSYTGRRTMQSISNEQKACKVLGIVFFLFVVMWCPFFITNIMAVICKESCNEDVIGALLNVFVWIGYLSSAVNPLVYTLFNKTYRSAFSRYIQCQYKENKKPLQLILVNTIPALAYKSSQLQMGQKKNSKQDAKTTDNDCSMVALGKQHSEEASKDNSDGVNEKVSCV
# Molecular target: T1, human 5-HT2A (h5-HT2A) receptor (Homo sapiens, UniProt P28223)
# T1 construct: expressed in transfected cells; grown under G418 and hygromycin B selection
# Assay: FLIPR assay, human 5-HT2A, agonist mode
# Type: cell-based
# Procedure: I. Assessment of the Effect of Exemplary Compounds of Formula I Targeting on Human 5-HT2A (h5-HT2A) Receptor Under Agonist Mode:
# I.c. Experimental Methods and Procedures: • 1. Cells were cultured in cell culture medium (DMEM containing 10% FBS, 1×penicillin-streptomycin 300 μg/ml G418 and 100 μg/ml hygromycin B) at 37° C., 5% (v/v) CO2. • 2. One day before the assays, the cells were detached using TrypLE™ Express and cells were counted using cell counter. Only cells with >85% viability were used for the assay. • 3. 20000 cells/well were seeded in 30 μl/well culture medium to a 384-well cell plate and cells were incubated overnight at 37° C., 5% (v/v) CO2. • 4. On the assay day, 2×dye solution was prepared following the manual of the FLIPR® Calcium 6 Assay Kit: i. The dye was diluted with assay buffer (20 mM HEPES in 1×HBSS, PH7.4); ii. Probenecid was added to the final concentration of 5 mM; iii. Vortex vigorously for 1-2 minutes. • 5. Medium was removed from cell plate by flicking the cell plate on towel papers. • 6. 10 μl of assay buffer and 10 μl of 2×dye solution was added to each well of the cell plate. • 7. […]
# • i. The normalized fluorescence reading (RFU) was calculated as shown below, where Fmax and Fmin stand for maximum and minimum of calcium signal during defined time window: RFU=Fmax−Fmin. • ii. […]
smiles,measurement,value
COc1ccc2[nH]cc(CCN(C)C)c2c1 [Compound 5-MeO-DMT],5-HT2A (FLIPR) RFU@10 μM,"2,081 RFU"
